This note sets out measurements from ChEMBL document CHEMBL5385907, “Proline-Hinged α-Helical Peptides Sensitize Gram-Positive Antibiotics, Expanding Their Physicochemical Properties to Be Used as Gram-Negative Antibiotics” (J Med Chem, 2024).

For series [1], the system named is Escherichia coli. The series can be described thus: Antibacterial activity against Escherichia coli ATCC 25922 assessed as inhibition of bacterial growth incubated for 18 hrs by two fold serial dilution assay. The series is classed as functional.
Series [2] has as its system Acinetobacter baumannii. Nature of the series: Antibacterial activity against Acinetobacter baumannii ATCC 17978 assessed as inhibition of bacterial growth incubated for 18 hrs by two fold serial dilution assay. The series is classed as functional.
The test system of series [3] is Klebsiella pneumoniae. Nature of the series: Antibacterial activity against Klebsiella pneumoniae ATCC 700603 assessed as inhibition of bacterial growth incubated for 18 hrs by two fold serial dilution assay. In kind it is functional.
Series [4] can be described thus: Hemolytic activity in human blood assessed as hemolysis incubated for 6 hrs by microplate reader analysis. In kind it is toxicity, tissue-based.
The nature of series [5]: Hydrophobicity of the compound assessed as retention time by reversed-phase HPLC analysis. The series is classed as physicochemical.
Series [6] relates to Escherichia coli. Nature of the series: Potentiation of erythromycin induced antibacterial activity against Escherichia coli ATCC 25922 assessed as decrease in bacterial growth at 0.4 uM incubated for 18 hrs in presence of erythromycin by two fold serial dilution assay. In kind it is functional, organism-based.
Series [7] concerns Escherichia coli. The series can be described thus: Potentiation of fusidic acid induced antibacterial activity against Escherichia coli ATCC 25922 assessed as decrease in bacterial growth at 0.4 uM incubated for 18 hrs in presence of fusidic acid by two fold serial dilution assay. In kind it is functional, organism-based.
Series [8] concerns Escherichia coli. The series can be described thus: Potentiation of novobiocin induced antibacterial activity against Escherichia coli ATCC 25922 assessed as decrease in bacterial growth at 0.4 uM incubated for 18 hrs in presence of novobiocin by two fold serial dilution assay. The series is classed as functional, organism-based.
For series [9], the system named is Acinetobacter baumannii. Nature of the series: Potentiation of erythromycin induced antibacterial activity against Acinetobacter baumannii ATCC 17978 assessed as decrease in bacterial growth at 0.4 uM incubated for 18 hrs in presence of erythromycin by two fold serial dilution assay. In kind it is functional, organism-based.
Series [10] has as its system Acinetobacter baumannii. Nature of the series: Potentiation of fusidic acid induced antibacterial activity against Acinetobacter baumannii ATCC 17978 assessed as decrease in bacterial growth at 0.4 uM incubated for 18 hrs in presence of fusidic acid by two fold serial dilution assay. In kind it is functional, organism-based.
Series [11] has as its system Acinetobacter baumannii. The series can be described thus: Potentiation of novobiocin induced antibacterial activity against Acinetobacter baumannii ATCC 17978 assessed as decrease in bacterial growth at 0.4 uM incubated for 18 hrs in presence of novobiocin by two fold serial dilution assay. In kind it is functional, organism-based.
The subject of series [12] is Klebsiella pneumoniae. Nature of the series: Potentiation of erythromycin induced antibacterial activity against Klebsiella pneumoniae ATCC 700603 assessed as decrease in bacterial growth at 0.4 uM incubated for 18 hrs in presence of erythromycin by two fold serial dilution assay. The series is classed as functional, organism-based.
The subject of series [13] is Klebsiella pneumoniae. Nature of the series: Potentiation of fusidic acid induced antibacterial activity against Klebsiella pneumoniae ATCC 700603 assessed as decrease in bacterial growth at 0.4 uM incubated for 18 hrs in presence of fusidic acid by two fold serial dilution assay. In kind it is functional, organism-based.
Series [14] relates to Klebsiella pneumoniae. Nature of the series: Potentiation of novobiocin induced antibacterial activity against Klebsiella pneumoniae ATCC 700603 assessed as decrease in bacterial growth at 0.4 uM incubated for 18 hrs in presence of novobiocin by two fold serial dilution assay. The series is classed as functional, organism-based.

Molecules are shown by their SMILES. Converted amounts (≈) assume the structure as drawn. The source made the active and inactive calls. The calls are words filed in the database; no cut-off is given here.

On to `CC(=O)N[C@@H](CCCCN)C(=O)N[C@@H](CCCCN)C(=O)N[C@@H](CC(C)C)C(=O)N[C@@H](CC(C)C)C(=O)N[C@@H](CCCCN)C(=O)N[C@@H](C)C(=O)N[C@@H](CC(C)C)C(=O)N[C@@H](CCCCN)C(=O)N[C@@H](CCCCN)C(=O)N1CCC[C@H]1C(=O)N[C@@H](CC(C)C)C(=O)N[C@@H](CCCCN)C(=O)N[C@@H](CC(C)C)C(=O)N[C@@H](CC(C)C)C(=O)N[C@@H](CCCCN)C(N)=O`, for which the MIC (as a rule, the lowest concentration found to suppress growth) with Escherichia coli [1] was above 80 µM; with Acinetobacter baumannii [2], 40 µM (≈ 72.1 µg/mL); in the series on Klebsiella pneumoniae [3], above 80 µM. For the same molecule, the MHC10 in series [4] was above 160 µM. Also, in [5], the Retention_time was determined as 16.7 min. Further, the result in the series with Escherichia coli [6], in the series with Escherichia coli [7], with Escherichia coli [8], with Acinetobacter baumannii [9], in the series on Acinetobacter baumannii [10] and with Acinetobacter baumannii [11] was Active. Besides, the result in the series on Klebsiella pneumoniae [12], in the series on Klebsiella pneumoniae [13] and with Klebsiella pneumoniae [14] was Active.
